The results in this text go back to patent publication US9682983B2, “BMP inhibitors and methods of use thereof” (THE BRIGHAM AND WOMEN'S HOSPITAL, INC., priority 2013, dated 2017).

The IC50 is the concentration needed to halve the response being measured.

This assay relates to TGF-β signaling activity (CAGA-Luc, human embryonic kidney 293T cells). The assay is described as follows: Cell luciferase assay, TGFβ (293T CAGA-Luc, TGF-β1 ligand). Particulars: HEK-293T, read-out: Cellular Assay IC50 (nM) TGFβ.

For `O=C(O)c1cccc2c(-c3cnn4cc(-c5ccc(N6CCNCC6)cc5)cnc34)ccnc12` [Compound 22, 4-(6-(4-(piperazin-1-yl)phenyl)pyrazolo[1,5-a]pyrimidin-3-yl)quinoline-8-carboxylic acid], the IC50 came to 100000 nM.
The figure for `NC(=O)c1cccc2c(-c3cnn4cc(-c5ccc(N6CCNCC6)cc5)cnc34)ccnc12` [Compound 23, 4-(6-(4-(piperazin-1-yl)phenyl)pyrazolo[1,5-a]pyrimidin-3-yl)quinoline-8-carboxamide] is 37 nM; for `OCc1cccc2c(-c3cnn4cc(-c5ccc(N6CCNCC6)cc5)cnc34)ccnc12` [Compound 24, (4-(6-(4-(piperazin-1-yl)phenyl)pyrazolo[1,5-a]pyrimidin-3-yl)quinolin-8-yl)methanol] it is 7840 nM; for `NCc1cccc2c(-c3cnn4cc(-c5ccc(N6CCNCC6)cc5)cnc34)ccnc12` [Compound 25, (4-(6-(4-(piperazin-1-yl)phenyl)pyrazolo[1,5-a]pyrimidin-3-yl)quinolin-8-yl)methanamine] it is 1480 nM.
The figure for `CC(=O)Nc1ccc2c(-c3cnn4cc(-c5ccc(N6CCNCC6)cc5)cnc34)ccnc2c1` [Compound 26, N-(4-(6-(4-(piperazin-1-yl)phenyl)pyrazolo[1,5-a]pyrimidin-3-yl)quinolin-7-yl)acetamide] is 5100 nM.
Turning to `Nc1ccc2c(-c3cnn4cc(-c5ccc(N6CCNCC6)cc5)cnc34)ccnc2c1` [Compound 27, 4-(6-(4-(piperazin-1-yl)phenyl)pyrazolo[1,5-a]pyrimidin-3-yl)quinolin-7-amine], the concentration for half-maximal inhibition (IC50) worked out at 1960 nM.
The figure for `Oc1ccc2c(-c3cnn4cc(-c5ccc(N6CCNCC6)cc5)cnc34)ccnc2c1` [Compound 28, 4-(6-(4-(piperazin-1-yl)phenyl)pyrazolo[1,5-a]pyrimidin-3-yl)quinolin-7-ol] is 4190 nM; for `c1cc(-c2cnn3cc(-c4ccc(OCCN5CCCCC5)nc4)cnc23)c2cccnc2c1` [Compound 29, 5-(6-(6-(2-(piperidin-1-yl)ethoxy)pyridin-3-yl)pyrazolo[1,5-a]pyrimidin-3-yl)quinoline] it is 67900 nM; for `c1cc(-c2cnn3cc(-c4ccc(N5CCNCC5)nc4)cnc23)c2cccnc2c1` [Compound 30, 5-(6-(6-(piperazin-1-yl)pyridin-3-yl)pyrazolo[1,5-a]pyrimidin-3-yl)quinoline] it is 56800 nM.
Take `CC(C)(CN1CCCCC1)Oc1ccc(-c2cnc3c(-c4cccc5ncccc45)cnn3c2)cc1` [Compound 32, 5-(6-(4-((2-methyl-1-(piperidin-1-yl)propan-2-yl)oxy)phenyl)pyrazolo[1,5-a]pyrimidin-3-yl)quinoline]: the 50% inhibitory concentration (IC50) stood at 100000 nM.
For the compound `C[C@@H]1CNC[C@H](C)N1c1ccc(-c2cnc3c(-c4ccnc5ccccc45)cnn3c2)cn1` [Compound 33, 4-(6-(6-((2R,6S)-2,6-dimethylpiperazin-1-yl)pyridin-3-yl)pyrazolo[1,5-a]pyrimidin-3-yl)quinoline], the concentration for half-maximal inhibition (IC50) worked out at 928 nM.
To `C[C@@H]1CNC[C@H](C)N1c1ccc(-c2cnc3c(-c4cccc5ncccc45)cnn3c2)cn1` [Compound 34] belongs 3870 nM; to `Clc1cc(-c2cnc3c(-c4ccnc5ccccc45)cnn3c2)ccc1N1CCNCC1` [Compound 35, 4-(6-(3-chloro-4-(piperazin-1-yl)phenyl)pyrazolo[1,5-a]pyrimidin-3-yl)quinoline], 9620 nM; to `Clc1cc(-c2cnc3c(-c4cccc5ncccc45)cnn3c2)ccc1N1CCNCC1` [Compound 36, 5-(6-(3-chloro-4-(piperazin-1-yl)phenyl)pyrazolo[1,5-a]pyrimidin-3-yl)quinoline], 11000 nM.
To `N#Cc1cc(-c2cnc3c(-c4ccnc5ccccc45)cnn3c2)ccc1N1CCNCC1` [Compound 37, 2-(piperazin-1-yl)-5-(3-(quinolin-4-yl)pyrazolo[1,5-a]pyrimidin-6-yl)benzonitrile] belongs 12100 nM.
To `N#Cc1cc(-c2cnc3c(-c4cccc5ncccc45)cnn3c2)ccc1N1CCNCC1` [Compound 38] belongs 12700 nM; to `Fc1cc(-c2cnc3c(-c4ccnc5ccccc45)cnn3c2)ccc1N1CCNCC1` [Compound 39], 8040 nM.
Consider `Fc1cc(-c2cnc3c(-c4cccc5ncccc45)cnn3c2)ccc1N1CCNCC1` [Compound 40], for which the IC50 worked out at 12500 nM.
Turning to `c1ccc2c(-c3cnn4cc(-c5ccc(OCCN6CCNCC6)nc5)cnc34)ccnc2c1` [Compound 41, 4-(6-(6-(2-(piperazin-1-yl)ethoxy)pyridin-3-yl)pyrazolo[1,5-a]pyrimidin-3-yl)quinoline], the half-inhibitory concentration (IC50) is 16700 nM.
The figure for `c1cc(-c2cnn3cc(-c4ccc(OCCN5CCNCC5)nc4)cnc23)c2cccnc2c1` [Compound 42, 5-(6-(6-(2-(piperazin-1-yl)ethoxy)pyridin-3-yl)pyrazolo[1,5-a]pyrimidin-3-yl)quinoline] is 39000 nM; for `CN1CCN(CCOc2ccc(-c3cnc4c(-c5ccnc6ccccc56)cnn4c3)cn2)CC1` [Compound 43, 4-(6-(6-(2-(4-methylpiperazin-1-yl)ethoxy)pyridin-3-yl)pyrazolo[1,5-a]pyrimidin-3-yl)quinoline] it is 8300 nM.
The figure for `CN1CCN(CCOc2ccc(-c3cnc4c(-c5cccc6ncccc56)cnn4c3)cn2)CC1` [Compound 44, 5-(6-(6-(2-(4-methylpiperazin-1-yl)ethoxy)pyridin-3-yl)pyrazolo[1,5-a]pyrimidin-3-yl)quinoline] is 58800 nM; for `Clc1cc(-c2cnc3c(-c4ccnc5ccccc45)cnn3c2)ccc1OCCN1CCCCC1` [Compound 45, 4-(6-(3-chloro-4-(2-(piperidin-1-yl)ethoxy)phenyl)pyrazolo[1,5-a]pyrimidin-3-yl)quinoline] it is 18300 nM; for `Clc1cc(-c2cnc3c(-c4cccc5ncccc45)cnn3c2)ccc1OCCN1CCCCC1` [Compound 46] it is 53600 nM.
The figure for `[2H]c1ccc2c(-c3cnn4cc(-c5ccc(OCCN6CCCCC6)cn5)cnc34)cccc2n1` [Compound 47, 5-(6-(5-(2-(piperidin-1-yl)ethoxy)pyridin-2-yl)pyrazolo[1,5-a]pyrimidin-3-yl)-2-^2H-quinoline] is 5250 nM; for `Cc1ccc2c(-c3cnn4cc(-c5ccc(OCCN6CCNCC6)cn5)cnc34)cccc2n1` [Compound 50, 2-methyl-5-(6-(5-(2-(piperazin-1-yl)ethoxy)pyridin-2-yl)pyrazolo[1,5-a]pyrimidin-3-yl)quinoline] it is 4300 nM; for `[2H]c1ccc2c(-c3cnn4cc(-c5ccc(OCCN6CCN(C)CC6)cn5)cnc34)cccc2n1` [Compound 51, 5-(6-(5-(2-(4-methylpiperazin-1-yl)ethoxy)pyridin-2-yl)pyrazolo[1,5-a]pyrimidin-3-yl)-2-^2H-quinoline] it is 11600 nM.
With `[2H]c1ccc2c(-c3cnn4cc(-c5ccc(N6[C@H](C)CNC[C@@H]6C)cc5)cnc34)cccc2n1` [Compound 53, 5-(6-(4-((2R,6S)-2,6-dimethylpiperazin-1-yl)phenyl)pyrazolo[1,5-a]pyrimidin-3-yl)2-^2H-quinoline], the IC50 is 390 nM.
To `Cc1ccc2c(-c3cnn4cc(-c5ccc(N6[C@H](C)CNC[C@@H]6C)cc5)cnc34)cccc2n1` [Compound 54, 5-(6-(4-((2R,6S)-2,6-dimethylpiperazin-1-yl)phenyl)pyrazolo[1,5-a]pyrimidin-3-yl)-2-methylquinoline] belongs 118 nM; to `[2H]c1ccc2c(-c3cnn4cc(-c5ccc(OCCN6CCOCC6)cn5)cnc34)cccc2n1` [Compound 55, 4-(2-((6-(3-(2-^2H-quinolin-5-yl)pyrazolo[1,5-a]pyrimidin-6-yl)pyridin-3-yl)oxy)ethyl)morpholine], 3960 nM.
To `Cc1ccc2c(-c3cnn4cc(-c5ccc(OCCN6CCOCC6)cn5)cnc34)cccc2n1` [Compound 56, 4-(2-((6-(3-(2-methylquinolin-5-yl)pyrazolo[1,5-a]pyrimidin-6-yl)pyridin-3-yl)oxy)ethyl)morpholine] belongs 16500 nM; to `[2H]c1ccc2c(-c3cnn4cc(-c5ccc(OC(C)(C)CN6CCCCC6)cn5)cnc34)cccc2n1` [Compound 57, 5-(6-(5-((2-methyl-1-(piperidin-1-yl)propan-2-yl)oxy)pyridin-2-yl)pyrazolo[1,5-a]pyrimidin-3-yl)-2-^2H-quinoline], 1530 nM; to `Cc1ccc2c(-c3cnn4cc(-c5ccc(OC(C)(C)CN6CCCCC6)cn5)cnc34)cccc2n1` [Compound 58, 2-methyl-5-(6-(5-((2-methyl-1-(piperidin-1-yl)propan-2-yl)oxy)pyridin-2-yl)pyrazolo[1,5-a]pyrimidin-3-yl)quinoline], 226 nM.
The figure for `[2H]c1ccc2c(-c3cnn4cc(-c5ccc(OC6CCN(C)CC6)cn5)cnc34)cccc2n1` [Compound 59, 5-(6-(5-((1-methylpiperidin-4-yl)oxy)pyridin-2-yl)pyrazolo[1,5-a]pyrimidin-3-yl)-2-^2H-quinoline] is 5860 nM; for `Cc1ccc2c(-c3cnn4cc(-c5ccc(OC6CCN(C)CC6)cn5)cnc34)cccc2n1` [Compound 60, 2-methyl-5-(6-(5-((1-methylpiperidin-4-yl)oxy)pyridin-2-yl)pyrazolo[1,5-a]pyrimidin-3-yl)quinoline] it is 801 nM.
Take `[2H]c1ccc2c(-c3cnn4cc(-c5ccc(OC6CCNCC6)cn5)cnc34)cccc2n1` [Compound 61, 5-(6-(5-(piperidin-4-yloxy)pyridin-2-yl)pyrazolo[1,5-a]pyrimidin-3-yl)-2-^2H-quinoline]: the IC50 was 5390 nM.
To `Cc1ccc2c(-c3cnn4cc(-c5ccc(OC6CCNCC6)cn5)cnc34)cccc2n1` [Compound 62, 2-methyl-5-(6-(5-(piperidin-4-yloxy)pyridin-2-yl)pyrazolo[1,5-a]pyrimidin-3-yl)quinoline] belongs 1890 nM.
The figure for `[2H]c1ccc2c(-c3cnn4cc(-c5ccc(O[C@@H]6CCNC6)cn5)cnc34)cccc2n1` [Compound 63, (R)-5-(6-(5-(pyrrolidin-3-yloxy)pyridin-2-yl)pyrazolo[1,5-a]pyrimidin-3-yl)-2-^2H-quinoline] is 1540 nM.
